These results are taken from patent EP1175402B1, “PIPERIDINE DERIVATIVES USEFUL AS CCR5 ANTAGONISTS” (SCHERING CORPORATION, priority 1999, dated 2000).

Sequences of proteins named here, by UniProt entry; tags and fusion partners are left off.
UniProt P51681, whole entry: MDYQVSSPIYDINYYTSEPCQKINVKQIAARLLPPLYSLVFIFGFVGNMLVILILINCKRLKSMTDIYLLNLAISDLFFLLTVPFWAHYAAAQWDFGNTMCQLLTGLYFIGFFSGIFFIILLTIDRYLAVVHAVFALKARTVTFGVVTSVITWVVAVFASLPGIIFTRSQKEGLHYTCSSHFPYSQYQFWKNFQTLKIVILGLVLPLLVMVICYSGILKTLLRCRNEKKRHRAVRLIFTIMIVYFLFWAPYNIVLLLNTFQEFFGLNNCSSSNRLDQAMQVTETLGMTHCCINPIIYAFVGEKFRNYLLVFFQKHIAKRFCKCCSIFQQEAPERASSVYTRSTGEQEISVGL

This assay concerns the target T1, human CCR5 chemokine receptor (Homo sapiens, UniProt P51681).
T1 construct: expressed in transfected cells; host or cells: NIH 3T3 cells (murine), membranes
Put plainly: CCR5 membrane binding assay (inhibition of 125I-RANTES binding). The note with it: membranes from NIH 3T3 cells expressing the human CCR5 chemokine receptor, one hour incubation. The protocol:
CCR5 Membrane Binding Assay:
A high throughput screen utilizing a CCR5 membrane binding assay identifies inhibitors of RANTES binding. This assay utilizes membranes prepared from NIH 3T3 cells expressing the human CCR5 chemokine receptor which have the ability to bind to RANTES, a natural ligand for the receptor. Using a 96-well plate format, membrane preparations are incubated with ^125I-RANTES in the presence or absence of compound for one hour. Compounds are serially diluted over a wide range of 0.001 ug/ml to 1 ug/ml and tested in triplicates. Reaction cocktails are harvested through glass fiber filters, and washed thoroughly. Total counts for replicates are averaged and data reported as the concentration required to inhibit 50 percent of total ^125I-RANTES binding. Compounds with potent activity in the membrane binding assay are further characterized in seconday cell-based HIV-1 entry and replication assays.

As a reminder, the Ki is the dissociation constant of the complex between target and ligand, obtained from inhibition or displacement. Turning to `CCO/N=C(\c1ccc(Br)cc1)C1CCN(C2(C)CCN(C(=O)c3c(Cl)cncc3Cl)CC2)CC1` [Example 5O], the Ki was 0.4 nM. The result for `CCO/N=C(\c1ccc(Br)cc1)C1CCN(C2(C)CCN(C(=O)c3c(Br)cncc3Br)CC2)CC1` [Example 5Z] reads 0.3 nM.
